Measurements reported in patent US11376580B2, “Methods and systems comprising modified pipettes for transferring and preserving biomaterial” (UNIVERSITY OF PITTSBURGH—OF THE COMMONWEALTH SYSTEM OF …, priority 2017, dated 2022).

Test system: HEK293 cells

Structure (SMILES): O=[N+]([O-])c1ccc(O)cc1 [4-Nitrophenol, 4-Nitrophenol]
- HEK293 cytotoxicity co-cultured with BioActivator (in words): increased
- HEK293 cytotoxicity co-cultured with BioActivator (in words) (human): measurable LC50 responses

Read-outs that look alike come from different tables or passages of the source.
